# Yeast mating assay 2: variants of the scFv Ab-95

The target is the same throughout: PDVDLGDISGINAS, from the HR2 region of SARS-CoV-2 spike.

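The parent was found by panning a naive human phage display library on the peptide. Library AAYL52 holds single substitutions and randomly drawn double and triple substitutions in the CDRs. The assay is AlphaSeq: two haploid yeast populations carry antibody and antigen on their surface. Pairs that bind mate more often; barcode pairs of the diploids are counted by sequencing. Each replicate has its own calibration line, from reference interactions of the BCL2 family. The assay was run in three technical replicates.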

Parent scFv Ab-95: VH joined to VL by three GGGGS repeats. Changes lie in the light chain CDRs alone.
VH: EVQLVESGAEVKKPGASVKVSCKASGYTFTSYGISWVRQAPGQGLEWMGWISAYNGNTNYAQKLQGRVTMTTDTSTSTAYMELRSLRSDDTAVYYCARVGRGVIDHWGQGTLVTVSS
VL: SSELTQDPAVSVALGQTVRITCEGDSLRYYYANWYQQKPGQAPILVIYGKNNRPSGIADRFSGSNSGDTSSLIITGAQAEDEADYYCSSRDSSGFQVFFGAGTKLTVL

Each variant's VL is given in full.
This list gathers variants with a substitution at Q96 (VL, numbered from residue 1).
Scale: log10 of Kd in nM, estimated from mating counts; low values are strong binders.
A mean of the replicates is given; it leaves out those without a signal.
An entry "no signal" has no value in the source: the pair was not observed among the diploids in any replicate. This suggests poor binding but is not conclusive.

The variant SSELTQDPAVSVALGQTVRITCEGDSLRYYYANWYQQKPGQAPILVIYGKNNRPSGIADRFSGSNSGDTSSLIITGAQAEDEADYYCSSRDSSLFPGFFGAGTKLTVL showed 3.87 (1 of 3 replicates). The variant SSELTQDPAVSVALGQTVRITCEGDSLRYYYANWYQQKPGQAPILVIYGKCNRPSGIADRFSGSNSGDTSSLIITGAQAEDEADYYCGSRDSSGFHVFFGAGTKLTVL gave 3.38 (2 of 3 replicates). For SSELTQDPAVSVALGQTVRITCEGDALRYYMANWYQQKPGQAPILVIYGKNNRPSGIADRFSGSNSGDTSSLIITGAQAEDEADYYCSSRDSSGFGVFFGAGTKLTVL, the assay gave 1.84 (3 of 3 replicates). For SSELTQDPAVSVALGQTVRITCEGDSLRYYYANWYQQKPGQAPILVIYGKNNAPSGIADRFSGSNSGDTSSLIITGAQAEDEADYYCSSRDSSGFHVVFGAGTKLTVL, the assay gave 2.35 (3 of 3 replicates). For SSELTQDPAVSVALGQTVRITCEGDSLRYYYANWYQQKPGQAPILVIYGKNNRPFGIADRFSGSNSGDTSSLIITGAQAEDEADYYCSSFDSSGFLVFFGAGTKLTVL, the assay gave 4.03 (1 of 3 replicates). For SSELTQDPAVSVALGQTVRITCEGRSLRYYYANWYQQKPGQAPILVIYGKNNRPSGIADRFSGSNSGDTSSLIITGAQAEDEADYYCSSRDSSGFKSFFGAGTKLTVL, the assay gave 3.31 (2 of 3 replicates). With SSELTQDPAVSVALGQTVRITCEGDSNRYYYANWYQQKPGQAPILVIYGKNNRPKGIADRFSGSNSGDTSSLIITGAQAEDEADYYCSSRDSSGFNVFFGAGTKLTVL the result was 3.24 (3 of 3 replicates). The variant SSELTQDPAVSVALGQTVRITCEGDSLRYYYANWYQQKPGQAPILVIYGKNNCPSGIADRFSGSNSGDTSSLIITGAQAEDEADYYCSSRDSSGFHMFFGAGTKLTVL gave 3.92 (3 of 3 replicates). The variant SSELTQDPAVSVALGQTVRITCEGDTLRYYYANWYQQKPGQAPILVIYGKNNRESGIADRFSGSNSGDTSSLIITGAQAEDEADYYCSSRDSSGFLVFFGAGTKLTVL showed no signal (0 of 3 replicates).

With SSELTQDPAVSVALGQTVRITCEGDSLRYYYANWYQQKPGQAPILVIYGKNNRPSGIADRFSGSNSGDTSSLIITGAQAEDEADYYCSSDDLSGFHVFFGAGTKLTVL the result was 3.29 (3 of 3 replicates). With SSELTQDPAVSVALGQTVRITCEGDSLRYYYANWYQQKPGQAPILVIYGKNNRPSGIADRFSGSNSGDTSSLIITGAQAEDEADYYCSSRDASLFRVFFGAGTKLTVL the result was no signal (0 of 3 replicates). The variant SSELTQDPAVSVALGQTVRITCEGDSLRYYYANWYQQKPGQAPILVIYGKNNAPSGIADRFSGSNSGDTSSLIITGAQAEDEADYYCSSRDSSGFAVFFGAGTKLTVL gave 3.43 (3 of 3 replicates). The variant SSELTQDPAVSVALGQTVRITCEGDSLRYYYANWYQQKPGQAPILVIYGKNNRPSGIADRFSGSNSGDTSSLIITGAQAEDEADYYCSVRDSSGTWVFFGAGTKLTVL gave 3.43 (2 of 3 replicates). The variant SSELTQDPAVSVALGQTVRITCEGDSLRYYYANWYQQKPGQAPILVIYGKNNRPSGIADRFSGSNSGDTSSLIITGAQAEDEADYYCSSRDSHGKNVFFGAGTKLTVL showed 3.39 (1 of 3 replicates). The variant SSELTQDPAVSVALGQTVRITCEGDSLRYYYNNWYQQKPGQAPILVIYGKNNRPAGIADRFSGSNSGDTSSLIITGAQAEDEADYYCSSRDSSGFTVFFGAGTKLTVL gave 2.88 (3 of 3 replicates). The variant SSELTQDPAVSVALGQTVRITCEGWSLRYYYANWYQQKPGQAPILVIYGKNNRWSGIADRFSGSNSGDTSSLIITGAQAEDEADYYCSSRDSSGFFVFFGAGTKLTVL gave 3.44 (3 of 3 replicates).

The first 2 variants above that were never detected:

VL	mean log10 Kd (nM)	replicates with signal
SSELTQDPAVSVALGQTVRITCEGDTLRYYYANWYQQKPGQAPILVIYGKNNRESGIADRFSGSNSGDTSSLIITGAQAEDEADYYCSSRDSSGFLVFFGAGTKLTVL	no signal	0 of 3
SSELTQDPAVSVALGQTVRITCEGDSLRYYYANWYQQKPGQAPILVIYGKNNRPSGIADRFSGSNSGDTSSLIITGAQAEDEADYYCSSRDASLFRVFFGAGTKLTVL	no signal	0 of 3

In this assay the parent's reference entry averaged 2.31; its copy inside this library read 2.25.
Three control strains display no target. For library AAYL52, 28% of the pairings with them gave a signal, with a median of 3.91 and one signal in twenty below 2.90, so weak values seen in few replicates may be background.

The measurements come from Engelhart et al. 2022 (doi:10.1038/s41597-022-01779-4) through the FLAb antibody collection.